Experimental data: PubChem BioAssay (Tox21)
This is a selection; strong and weak results do not stand in their true shares. Inconclusive results are not listed. Entries that show only a call come without a potency. Calls of active or inactive are those of the source. The call rests on the fitted dose curve; in most records, active means well fitted cell-killing curve with a large enough effect in the repeat runs; inconclusive means weak or mixed curves; inactive means no such curve, though single readings can be large or run the other way.

assay: qHTS assay to identify small molecule antagonists of the androgen receptor (AR) signaling pathway - cell viability counter screen (AID 743033; further: nearly all actives have a fitted effect of over 45% in size); conditions: AR-bla HEK293 viability, CellTiter-Glo luminescence, 16 h; series mostly up to 58.5 µM
Excerpt: National Center for Advancing Translational Sciences [NCATS]
NIH Chemical Genomics Center [NCGC]
U.S. Environmental Protection Agency [EPA]
National Institutes of Environmental Health Sciences [NIEHS]
National Toxicology Program [NTP]
U.S. Food and Drug Administration [FDA]
Androgen receptor (AR), a nuclear hormone receptor, plays a critical role in AR-dependent prostate cancer and other androgen related diseases. Endocrine disrupting chemicals (EDCs) and their interactions with steroid hormone receptors like AR may cause disruption of normal endocrine function as well as interfere with metabolic homeostasis, reproduction, developmental and behavioral functions. To identify the compounds that inhibit AR signaling, GeneBLAzer AR-UAS-bla-GripTite cell line (Invitrogen, Carlsbad, CA, USA) containing a beta-lactamase reporter gene under control of an Upstream Activator Sequence (UAS) stably integrated into HEK293 cells was used to screen the Tox21 10K compound library. The cytotoxicity of the Tox21 compound library against the AR-bla cell line was tested in parallel by measuring the cell viability using CellTiter-Glo assay in the same wells.
Tox21 Assay Protocol Summary:
AR-bla cells were dispensed at 2,000 cells/5 uL of assay medium per well into black wall/clear-bottom 1536-well plates using a Multidrop Combi (ThermoFisher Scientific, Waltham, MA) dispenser. After the assay plates were incubated at a 37C and 5% CO2 for 4 hr, 23 nL of compounds dissolved in DMSO, positive controls or DMSO only was transferred to the assay plate by a Pintool station (Kalypsys, San Diego, CA), followed by addition of 1 uL of agonist (R1881) in culture medium using a Bioraptr Flying Reagent Dispenser (FRD) workstation (Beckman Coulter, Indianapolis, IN, USA). The plates were incubated at a 37C and 5% CO2 for 16 h. After 1 uL of LiveBLAzerTM B/G FRET substrate was added using a Bioraptr FRD, the plates were incubated at room temperature for 2 h and fluorescence intensity was measured by an Envision plate reader (PerkinElmer, Shelton, CT). For cell viability readout that measures cytotoxicity, 4 ul/well of CellTiter-Glo reagent was added into the assay plates using a Bioraptr FRD. After 30 min incubation at room temperature, the luminescence intensity in the plates was measured using a ViewLux (PerkinElmer) plate reader.
Potency means the concentration at half of the fitted maximal effect.

Q: With `O=[N+]([O-])c1ccc(S(=O)(=O)O)c([N+](=O)[O-])c1` as the compound, how does the Potency read?
A: The Potency was “inactive”.

Q: Which Potency does the source give for `O=P(Cl)(Cl)c1ccccc1` here?
A: The Potency was “inactive”.

Q: For `CCNC(C)Cc1ccc2c(c1)OCO2` (configuration not stated), which Potency is on record?
A: The Potency was “inactive”.

Q: Which Potency does the source give for `NC(=O)Nc1ccc([As](=O)(O)O)cc1` here?
A: Its Potency is “inactive”.

Q: Which Potency does the source give for `COP(=S)(Cl)OC` here?
A: The Potency was “inactive”.

Q: Which Potency does the source give for `CC(C)CCCCCCCOP(OCCCCCCCC(C)C)Oc1ccccc1` here?
A: The Potency was “inactive”.

Q: With `O=[p+]1oc2ccccc2c2ccccc21` (configuration not stated) as the compound, how does the Potency read?
A: The Potency was “inactive”.

Q: With `O=[As]c1ccccc1` (configuration not stated) as the compound, how does the Potency read?
A: Its Potency is active: 490 nM.

Q: For `CN(N=O)C(=N)N[N+](=O)[O-]`, which Potency is on record?
A: Its Potency is “inactive”.

Q: Which Potency does the source give for `ClP(Cl)c1ccccc1` here?
A: Its Potency is “inactive”.

Q: With `O=P(Cl)(Oc1ccccc1)Oc1ccccc1` as the compound, how does the Potency read?
A: Its Potency is “inactive”.

Q: For `CCOP(=S)(CC)Sc1ccccc1` (configuration not stated), which Potency is on record?
A: The Potency was “inactive”.

Q: With `CN(C(=O)Cc1ccccc1)[C@H]1CC[C@@]2(CCCO2)C[C@@H]1N1CCCC1` as the compound, how does the Potency read?
A: The Potency was “inactive”.

Q: For `CCCCC(CC)CO[P+](=O)OCC(CC)CCCC` (configuration not stated), which Potency is on record?
A: Its Potency is “inactive”.

Q: For `O=[P+](Oc1ccccc1)Oc1ccccc1`, which Potency is on record?
A: Its Potency is “inactive”.

Q: For `CCCCCCCCCCCCCC[P+](CCCCCC)(CCCCCC)CCCCCC`, which Potency is on record?
A: The Potency was active: 435 nM.

Q: For `CN(C(=O)Cc1cccc2occc12)[C@H]1CC[C@@]2(CCCO2)C[C@@H]1N1CCCC1`, which Potency is on record?
A: The Potency was “inactive”.

Q: Which Potency does the source give for `CCCCO[P+](=O)OCCCC` here?
A: Its Potency is “inactive”.

Q: Which Potency does the source give for `CCOC(=O)Cl` here?
A: Its Potency is “inactive”.

Q: Which Potency does the source give for `CN(C(=O)Cc1ccc(Cl)c(Cl)c1)[C@H]1CC[C@@]2(CCCO2)C[C@@H]1N1CCCC1` here?
A: Its Potency is “inactive”.

Q: With `COC(=O)Cl` as the compound, how does the Potency read?
A: The Potency was “inactive”.

Q: For `O=C(OC1CN2CCC1CC2)c1ccccc1` (configuration not stated), which Potency is on record?
A: Its Potency is “inactive”.
